Source: paper PMC8379176, “Molecular recognition of an acyl-peptide hormone and activation of ghrelin receptor” (Nature Communications, 2021)

By UniProt entry, the sequences of proteins in these tests, tags left out.
UniProt Q92847, whole entry F279A: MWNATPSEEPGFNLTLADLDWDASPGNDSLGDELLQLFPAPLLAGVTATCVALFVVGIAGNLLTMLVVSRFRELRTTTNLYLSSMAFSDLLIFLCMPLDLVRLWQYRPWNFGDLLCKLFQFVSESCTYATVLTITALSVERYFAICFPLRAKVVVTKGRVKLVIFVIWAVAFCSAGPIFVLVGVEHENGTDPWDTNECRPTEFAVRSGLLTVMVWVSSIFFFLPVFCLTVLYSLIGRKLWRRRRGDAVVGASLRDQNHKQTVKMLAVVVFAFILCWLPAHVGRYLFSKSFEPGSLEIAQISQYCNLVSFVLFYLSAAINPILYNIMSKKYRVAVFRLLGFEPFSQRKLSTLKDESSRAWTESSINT
UniProt Q92847, whole entry F312A: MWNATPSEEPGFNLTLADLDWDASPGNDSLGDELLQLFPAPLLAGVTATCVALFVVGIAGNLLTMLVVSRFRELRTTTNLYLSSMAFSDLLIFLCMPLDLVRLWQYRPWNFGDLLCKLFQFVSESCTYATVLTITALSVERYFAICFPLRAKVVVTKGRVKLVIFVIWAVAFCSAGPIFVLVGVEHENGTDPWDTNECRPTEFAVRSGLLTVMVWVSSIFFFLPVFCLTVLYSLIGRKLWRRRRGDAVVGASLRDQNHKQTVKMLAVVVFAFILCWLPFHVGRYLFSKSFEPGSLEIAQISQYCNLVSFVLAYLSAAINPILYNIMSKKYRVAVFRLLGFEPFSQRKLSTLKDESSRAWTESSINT

What was measured:
[1] = target: T1, ghrelin receptor F279A (Homo sapiens, UniProt Q92847, F279A); assay: HTRF saturation binding of ghrelin-A2, F279A; settings: vs. WT
T1 construct: HA signal peptide (printed also as HA-tagged) (N); expressed in transfected cells; host or cells: HEK293

[2] = target: T2, ghrelin receptor F312A (Homo sapiens, UniProt Q92847, F312A); assay: HTRF saturation binding of ghrelin-A2, F312A; settings: vs. WT
T2 construct: HA signal peptide / HA tag (N); expressed in transfected cells; host or cells: HEK293

ghrelin was tested, and the “effect of mutation on binding” value [1] was “partly maintain the binding” and the “effect of mutation on binding” value [2] was “partly maintain the binding”.
